## AlphaSeq binding of Ab-95 light chain variants to a spike HR2 peptide

Target peptide (SARS-CoV-2 spike, HR2 region): PDVDLGDISGINAS

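The starting antibody came from a phage panning campaign against this peptide. The library (AAYL52) carries one to three amino acid substitutions per variant, with no insertions or deletions. The assay is AlphaSeq: two haploid yeast populations carry antibody and antigen on their surface. After mating in shaken culture at 30 °C for 16 h, diploids were selected and their barcode pairs sequenced. Scores were corrected for input abundance and mapped to Kd with protein pairs of known affinity run in the same pool. There are three technical replicates.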

Parent scFv Ab-95: VH joined to VL by a 15-residue (Gly4Ser)3 linker. Changes lie in the light chain CDRs alone.
VH: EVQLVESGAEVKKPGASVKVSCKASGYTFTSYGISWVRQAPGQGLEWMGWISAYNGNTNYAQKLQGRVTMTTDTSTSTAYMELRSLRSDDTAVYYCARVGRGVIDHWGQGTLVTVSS
VL: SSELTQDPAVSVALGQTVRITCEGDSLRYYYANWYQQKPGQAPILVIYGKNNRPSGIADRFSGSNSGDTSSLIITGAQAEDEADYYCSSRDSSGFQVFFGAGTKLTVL

The parent's light chain CDRs are EGDSLRYYYAN, GKNNRPS, SSRDSSGFQVF; each variant's own CDRs replace them letter for letter.
Scale: log10 of Kd in nM, estimated from mating counts; low values are strong binders.
The mean shown is taken over the replicates in which the pair was detected.
A pair that was not seen in any replicate is written "no signal"; this usually means weak binding, but a binder can also be missed.

CDR-L1	CDR-L2	CDR-L3	mean log10 Kd (nM)	detected	control signals
EGDNLRYKYAN	GKNNRPS	SSRDSSGFQVY	2.23	3 of 3	4 of 9
EGNSLRGYYAN	GKNNRPS	SSRDSSGFQAF	1.61	3 of 3	3 of 9
EMDSLRYYYAN	GKCNRPS	SSRDSSGRQVF	5.56	1 of 3	3 of 9
EGDSLRYYYAL	GKNNRPS	SSRDSCSFQVF	3.99	1 of 3	5 of 9
EGDSLRYYYAY	GKNNRPV	SSRDSSGFDVF	4.66	2 of 3	3 of 9
EGDSLRYYYAN	GKNIRTS	SSRDYSGFQVF	3.08	3 of 3	1 of 9
MGDSLRYYYGN	GKNNRPS	SSRDSSKFQVF	no signal	0 of 3	1 of 9
YGVSLRYYYAN	GKNNRPS	SSRDPSGFQVF	2.74	3 of 3	2 of 9
EGDSLRYYYAN	KENNFPS	SSRDSSGFQVF	no signal	0 of 3	0 of 9
IGDSWRYYYAN	GKNNRPE	SSRDSSGFQVF	3.87	2 of 3	2 of 9
EGDSLRYYYAL	GKNDRPS	SSRDSSGFQVL	4.08	1 of 3	0 of 9
EGDSLRYYYCN	GKNNRPS	SSRNSSGFQVF	2.96	3 of 3	5 of 9
IGDSLRYYRAN	GKNNRPS	SSRDSSGFQVR	3.06	3 of 3	3 of 9
EGDSLIYYYAN	GKNNRPS	SSRDSSGFQVV	3.42	3 of 3	1 of 9
EGDSLRYYYAN	KKNNRPH	SSRDLSGFQVF	4.44	1 of 3	1 of 9
EGHSLRYYYAN	GKNNRPS	SSRQSSGFQVF	3.71	3 of 3	2 of 9
EGDSLRYYYAN	GKNNRES	SSRERSGFQVF	no signal	0 of 3	2 of 9
EGDSLRYYYAN	GKLNRPN	SSRDSSGFQVF	3.01	3 of 3	0 of 9
EGDSKRYYYAN	GCNNRPS	SSYDSSGFQVF	4.13	1 of 3	3 of 9
EGDSARYYYAN	GFNNRPS	SSRDSGGFQVF	4.26	3 of 3	4 of 9
EGDSPRYYYAN	WKNNRPS	SSRDLSGFQVF	4.16	2 of 3	1 of 9
ERDSLRYYYAN	GKNRRPS	SSIDSSGFQVF	no signal	0 of 3	3 of 9
YGDRLYYYYAN	GKNNRPS	SSRDSSGFQVF	3.00	1 of 3	2 of 9
EGDSLRYYYRN	GQNNRPS	SSRDRSGFQVF	3.55	3 of 3	2 of 9
EADFLRYYYAN	GKNNRPS	SSRDSSGPQVF	3.94	3 of 3	3 of 9
EGDSLRMYYAN	GKNNRPS	SSRDSSYFQVF	no signal	0 of 3	1 of 9
EGPSLRYYYTN	GKNNRPS	SSRDSSGFSVF	1.89	3 of 3	0 of 9
EGDSLYYYCAN	VKNNRPS	SSRDSSGFQVF	no signal	0 of 3	1 of 9
EGDSLRYYYAN	GKNQRSD	SSRDSSGFQVF	1.39	3 of 3	3 of 9
EGDSLRYYYAN	CKNNLPS	SSRLSSGFQVF	4.28	1 of 3	1 of 9
EGASLRWYYAN	GKNNRPS	SSTDSSGFQVF	2.99	2 of 3	3 of 9
EGDSKRYYYAN	GKNNRPS	SSRDSSGRQVF	no signal	0 of 3	2 of 9
EGDSLRYYYCN	GKNNRIS	SSRDSSGFQVP	2.51	1 of 3	4 of 9
EGDSLRYYYLN	GKNNRTS	GSRDSSGFQVF	no signal	0 of 3	1 of 9
EGDSLRYYNAN	GKNNRPS	SARDSSGMQVF	0.90	3 of 3	2 of 9
VGDSLRYYYAN	GKNNRPS	SSRDSEPFQVF	2.32	3 of 3	3 of 9
ESDSLTYYYAN	GKNNRPS	SVRDSSGFQVF	2.59	3 of 3	3 of 9

Second part, the sequence after the result:

mean log10 Kd (nM)	detected	control signals	CDR-L1	CDR-L2	CDR-L3
no signal	0 of 3	1 of 9	EGDILRYYYAN	GKNNRYS	STRDSSGFQVF
2.57	3 of 3	3 of 9	EGDSLRYHYPN	GKNNRPS	TSRDSSGFQVF
3.91	2 of 3	4 of 9	EGGSFRYYYAN	GKNNRPS	SSRDISGFQVF
3.06	2 of 3	4 of 9	EGDSLRDYYAN	GKNNAPI	SSRDSSGFQVF
3.84	3 of 3	4 of 9	EGDSWRYYYAN	GKNNRPS	SSGDSSGFQVF
4.06	3 of 3	2 of 9	EGDSLRYYYAN	GKNNRVS	SSRDSKGAQVF
2.96	3 of 3	7 of 9	EHDSLRYYCAN	GKNNRPS	ASRDSSGFQVF
3.01	3 of 3	0 of 9	YSDSLRYYYAN	GKNNRPS	FSRDSSGFQVF
4.70	1 of 3	2 of 9	EGYSIRYYYAN	GKPNRPS	SSRDSSGFQVF
3.85	2 of 3	2 of 9	EGDSLRYYRAN	KKNNRPS	SSRMSSGFQVF
4.56	1 of 3	4 of 9	IGDSYRYWYAN	GKNNRPS	SSRDSSGFQVF
3.03	3 of 3	2 of 9	EGDSLRYYYAN	GKNNRPS	SSRDTSGFAVF
2.43	3 of 3	3 of 9	EGQSNRYHYAN	GKNNRPS	SSRDSSGFQVF
3.50	1 of 3	2 of 9	EGDSLRYYYQW	GKNNRWS	SSRDSSGFQVF
2.54	3 of 3	5 of 9	EGDSLAYYYAN	GKNNRPS	SSRDSSGNQVF
4.27	1 of 3	3 of 9	EGDSLMYYYAN	GKNNRYS	SSRDSSGFQVM
2.04	3 of 3	6 of 9	EGDSLRYYYPN	DKNNRPG	SSRDSSGFQVF
no signal	0 of 3	0 of 9	EGDFLRYYYAN	GKNNKPS	SSRDSSIFQVF
no signal	0 of 3	0 of 9	EGDSLRYYHAN	GKNNRPS	HSRDSSGFQSF
3.11	3 of 3	5 of 9	EGDSLSYYYAN	GKNNRPT	SSRDSSGFQTF
2.14	3 of 3	3 of 9	EGGSLRYYYAN	GKGQRPS	SSRDSSGFQVF
5.58	1 of 3	4 of 9	EGDSLRYYYAN	LKNNRPS	VFRDSSGFQVF
2.38	3 of 3	1 of 9	YGDSRRYYYAN	GKNNRPS	SSRDKSGFQVF
no signal	0 of 3	2 of 9	EGDSLRYYYAN	GKVNRQS	SSRDSSGFQVF
3.98	2 of 3	2 of 9	RGDSLRYYYAN	RKNMRPS	SSRDSSGFQVF
4.69	1 of 3	3 of 9	EGDSLRYYYAN	GKNNEPS	SKRDSSGFQSF
no signal	0 of 3	1 of 9	EGDSLRYYYAN	GKNPRPS	SSRESIGFQVF
3.60	2 of 3	2 of 9	ESHSLRYYWAN	GKNNRPS	SSRDSSGFQVF
3.76	2 of 3	2 of 9	EADNLRYYYAN	GKNNCPS	SSRDSSGFQVF
4.23	3 of 3	3 of 9	EGDSLRIYYAD	GKANRPS	SSRDSSGFQVF
4.23	2 of 3	1 of 9	EGDSLRYYYAN	LKNNRIS	SSVDSSGFQVF
2.17	3 of 3	6 of 9	EGDSLRYYMAK	GKNNRPS	SSRDCSGFQVF
3.82	2 of 3	2 of 9	EGDSLFYYYAN	GKRNRPS	SSRDSSNFQVF
2.88	1 of 3	0 of 9	KGDNLRYYYAN	GKNNSPS	SSRDSSGFQVF
4.96	2 of 3	2 of 9	KGDSLRYYYWN	RKNNRPS	SSRDSSGFQVF
3.05	1 of 3	1 of 9	EGDSLRWYYAN	GKNNNPS	SSRDCSGFQVF
3.39	3 of 3	0 of 9	GGDSLRYYYAN	GKNNRPS	SSRDSSGSYVF

The 7 strongest on average among those seen in every replicate, once more:

CDR-L1	CDR-L2	CDR-L3	mean log10 Kd (nM)	detected	control signals
EGDSLRYYNAN	GKNNRPS	SARDSSGMQVF	0.90	3 of 3	2 of 9
EGDSLRYYYAN	GKNQRSD	SSRDSSGFQVF	1.39	3 of 3	3 of 9
EGNSLRGYYAN	GKNNRPS	SSRDSSGFQAF	1.61	3 of 3	3 of 9
EGPSLRYYYTN	GKNNRPS	SSRDSSGFSVF	1.89	3 of 3	0 of 9
EGDSLRYYYPN	DKNNRPG	SSRDSSGFQVF	2.04	3 of 3	6 of 9
EGGSLRYYYAN	GKGQRPS	SSRDSSGFQVF	2.14	3 of 3	3 of 9
EGDSLRYYMAK	GKNNRPS	SSRDCSGFQVF	2.17	3 of 3	6 of 9

Nonspecific signal, from three strains lacking the peptide, appeared in 28% of pairings of library AAYL52, centred on 3.91 (5% of these signals below 2.90); values are not corrected for it. Also given: how often the same scFv was detected with the empty control strains.

Source: Engelhart et al. 2022 (doi:10.1038/s41597-022-01779-4), MIT Lincoln Laboratory and A-Alpha Bio; data file from the FLAb repository.